According to US10934304B2, “Spirocyclic compounds” (Recurium IP Holdings, LLC, priority 2016, dated 2021):
Like-named read-outs stand apart in the source and are kept apart here.

Protein sequences, listed by entry. Tags and fused reporters are not part of them.
UniProt P28482, whole entry: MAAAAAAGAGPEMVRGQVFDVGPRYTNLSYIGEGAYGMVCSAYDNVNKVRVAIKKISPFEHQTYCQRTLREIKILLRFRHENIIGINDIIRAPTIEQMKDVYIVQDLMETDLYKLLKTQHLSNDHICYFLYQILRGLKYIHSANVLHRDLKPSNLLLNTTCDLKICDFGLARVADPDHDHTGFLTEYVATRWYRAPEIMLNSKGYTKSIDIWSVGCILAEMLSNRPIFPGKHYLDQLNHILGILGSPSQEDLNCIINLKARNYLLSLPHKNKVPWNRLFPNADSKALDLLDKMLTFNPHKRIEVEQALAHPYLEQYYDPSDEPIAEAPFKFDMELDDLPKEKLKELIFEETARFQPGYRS

Experiments:
ERK2 = ERK2 (Homo sapiens (Human), UniProt P28482); assay: Active ERK1 and ERK2 Kinase Assay (Mobility Shift Assay); type: biochemical; conditions: read-out: ERK2 IC50, activated ERK2, Mobility Shift Assay
A375 (melanoma) cells = assay: Proliferation Assay (CellTiter-Glo)

SMILES	IC50 (ERK2; tested form: acetate) [nM]	IC50 (A375 (melanoma) cells; read-out: A375 IC50, 3 days incubation, CellTiter-Glo luminescence, tested form: acetate) [nM]	IC50 (ERK2) [nM]	IC50 (A375 (melanoma) cells; read-out: A375 IC50, 3 days incubation, CellTiter-Glo luminescence) [nM]
COc1ccc(-c2n[nH]c3ccc(N4CC[C@]5(CCN(CC(=O)N6CCC(c7ccc(-c8ncn(C)n8)cc7)CC6)C5)C4=O)nc23)cn1	< 50	500 to 1000	–	–
Cn1cc(-c2n[nH]c3ccc(N4CC[C@]5(CCN(CC(=O)N6CC=C(c7ccc(-c8nn(C)c(=O)o8)cc7)CC6)C5)C4=O)nc23)cn1	–	–	< 50	< 500
